Only a part is listed here, and it is no random draw. Calls of active or inactive are those of the source.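 Rule for the calls: active = inhibition of 50% or more; inactive = inhibition below 50%.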
Test: NALP3 inflammasome inhibitors in reconstituted yeast, primary screen, luminescence, uHTS (AID 2825);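 note: plate controls were induced DMSO wells for no effect and uninduced yeast grown without galactose for full effect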
Conditions: Yeast reconstituted NLRP3/ASC/caspase-1, beta-gal luminescence, 24 h; at 10 µM; hits give high values
With `Nc1ccc([As](=O)(O)c2ccc([N+](=O)[O-])cc2)cc1` the inhibition was inactive: -4.18%. In the case of `O=C(OC1CN2CCC1CC2)c1cccc(Cl)c1` (configuration not stated), the inhibition was inactive: 7.06%. With `O=[N+]([O-])c1ncn(CCn2cnc([N+](=O)[O-])n2)n1` the inhibition was inactive: 0.307%. With `O=[As](O)(c1ccccc1)c1ccc(O)cc1` the inhibition was inactive: -5.17%. For `c1nnnn1CCn1cnnn1`, the inhibition was inactive: 2.17%. With `CC(C)C(=O)NC(Sc1ccccc1)C(Cl)(Cl)Cl` (configuration not stated) the inhibition was inactive: 18.1%. With `O=P(Nc1nccs1)(c1ccccc1)c1ccccc1` the inhibition was inactive: 10.8%. In the case of `CC(C)(C)C(=O)NC(Sc1ncccn1)C(Cl)(Cl)Cl` (configuration not stated), the inhibition was inactive: 3.85%. In the case of `Clc1n[nH]nc1-c1nn[nH][15n]1`, the inhibition was inactive: -8.24%. In the case of `CCOP(=O)(Nc1ccc(C)cn1)OCC`, the inhibition was inactive: 1.8%. For `CN(CCCl)Cc1cc(Cl)c(NC2=NCCN2)c(Cl)c1`, the inhibition was inactive: 5.59%. In the case of `CCOP(=O)(NC(=NC(C)c1ccccc1)NC(C)c1ccccc1)OCC` (configuration not stated), the inhibition was inactive: 6.12%. For `O=P1(Nc2ccccn2)COc2ccccc2OC1`, the inhibition was inactive: 7.01%. For `CCC1=CC2Cc3nc4ccc(Cl)cc4c(N)c3C(C1)C2` (configuration not stated), the inhibition was inactive: 17%. For `CC1(CBr)Cn2c(nc3ccccc3c2=O)S1` (configuration not stated), the inhibition was inactive: -10.8%. In the case of `O=[As](O)(c1ccccc1Br)c1ccccc1Br`, the inhibition was inactive: 3.9%. In the case of `CC(C)/C=N\N=C(\N)N[N+](=O)[O-]`, the inhibition was inactive: 11.7%. For `CN(C(=O)Cc1ccc(Cl)c(Cl)c1)[C@@H]1CCCC[C@H]1N1CCCC1`, the inhibition was inactive: -8.96%. In the case of `COc1ccccc1CNC(=O)COC(=O)C(O)(c1ccccc1)c1ccccc1`, the inhibition was inactive: 5.28%. In the case of `O=C(/C=C/c1ccccc1)OC1CN2CCC1CC2` (configuration not stated), the inhibition was inactive: 10.5%. With `CN(C)C1(CNC(=O)c2ccc(S(C)(=O)=O)cc2)CCCCC1` the inhibition was inactive: 7.47%. For `CC1CCC(C(C)C)C(OP(=O)(Nc2ccccn2)c2ccccc2)C1` (configuration not stated), the inhibition was inactive: 19.2%. With `Cc1ccc(C(=O)OC2CN3CCC2CC3)cc1` (configuration not stated) the inhibition was inactive: 11.1%. With `Cc1nn(-c2ccccc2)c2c1P(=O)(N1CCOCC1)N(C)C(c1ccccc1)=N2` (configuration not stated) the inhibition was inactive: 1.57%. With `O=[As](O)(c1cccs1)c1cccs1` the inhibition was inactive: -7.03%. For `Cc1ccc(OCC(=O)OC2CN3CCC2CC3)cc1` (configuration not stated), the inhibition was inactive: 16.9%. With `O=P1(Nc2ccc(Br)cn2)COc2ccccc2OC1` the inhibition was inactive: 2.7%. For `NS(=O)(=O)c1cccc(NC(=O)COC(=O)C(O)(c2ccccc2)c2ccccc2)c1`, the inhibition was inactive: 5.73%. With `Nc1cccc([As](=O)(O)c2ccccc2)c1` the inhibition was inactive: -12.3%. With `O=P1(Nc2ncccn2)COc2ccccc2OC1` the inhibition was inactive: 5.81%. In the case of `Nc1ccccc1[As](=O)(O)c1ccccc1`, the inhibition was inactive: -1.31%. With `O=C(O)COc1ccc([As](=O)(O)O)cc1[N+](=O)[O-]` the inhibition was inactive: 9.95%. For `CS(=O)(=O)c1cc([N+](=O)[O-])c2no[n+]([O-])c2c1`, the inhibition was inactive: 19%. For `O=P(Nc1nccs1)(Oc1ccccc1)Oc1ccccc1`, the inhibition was inactive: 3.05%. For `O=P(Nc1nccs1)(c1ccccc1)c1nc2ccccc2s1` (configuration not stated), the inhibition was inactive: -13.9%. In the case of `CCOP1(=S)c2c(C)nn(CCC#N)c2N=C(c2ccccc2F)N1C` (configuration not stated), the inhibition was inactive: 7.89%. With `CN(C(=O)Cc1ccc(Cl)c(Cl)c1)[C@H]1CC[C@@]2(CCCO2)C[C@@H]1N1CCCC1` the inhibition was inactive: 14.2%. For `O=[N+]([O-])c1ccc2c(c1)nnn2O`, the inhibition was inactive: -5.76%. In the case of `CN(C)C(=O)c1cc([N+](=O)[O-])cc2c1-c1c(cc([N+](=O)[O-])cc1[N+](=O)[O-])C2=O`, the inhibition was inactive: 19.4%. In the case of `CCOP1(=S)c2c(C)nn(CCC#N)c2N=C(c2ccc(F)cc2)N1C` (configuration not stated), the inhibition was inactive: 4.25%. With `CN(C(=O)Cc1ccccc1)[C@@H]1CC[C@]2(CCCO2)C[C@H]1N1CCCC1` the inhibition was inactive: 23.2%. In the case of `N#CCCN(C(=O)COC(=O)C(O)(c1ccccc1)c1ccccc1)c1ccc(F)cc1`, the inhibition was inactive: 27%. For `NC(=O)Nc1ccc([As](=O)(O)O)cc1`, the inhibition was inactive: 17.4%. In the case of `Cc1cccc(OCC(=O)OC2CN3CCC2CC3)c1` (configuration not stated), the inhibition was inactive: 10.7%. In the case of `O=[As](O)(c1cccc(O)c1)c1cccc(O)c1`, the inhibition was inactive: 5.15%. In the case of `CS(=O)(=O)c1ccc(Cl)c(NC(=O)COC(=O)C(O)(c2ccccc2)c2ccccc2)c1`, the inhibition was inactive: 22.6%. In the case of `O=[As](O)(O)c1cccnc1`, the inhibition was inactive: -5.6%. In the case of `COc1cc(C(=O)NCC2(N3CCOCC3)CCCCC2)cc(Cl)c1OC(C)C`, the inhibition was inactive: -2.04%. With `O=C(OC1CN2CCC1CC2)c1ccc(Cl)cc1` (configuration not stated) the inhibition was inactive: 10.1%. With `CCOP(=O)(Nc1cccc2ccccc12)OCC` the inhibition was inactive: 6.74%. In the case of `COc1cc(C2NCCC3(OCCO3)C2(C)C)cc(OC)c1OC` (configuration not stated), the inhibition was inactive: 11.7%. For `CCCOP(=S)(Nc1nc(N)cc(=O)[nH]1)OCCC`, the inhibition was inactive: -10.8%. With `Cc1ccc(NCCc2c([N+](=O)[O-])cc([N+](=O)[O-])cc2[N+](=O)[O-])cc1` the inhibition was inactive: 33.7%. In the case of `COc1cc(I)ccc1[As](=O)(O)O`, the inhibition was inactive: -0.566%. With `COc1ccc2nc(NP(=O)(c3ccccc3)c3ccccc3)sc2c1` the inhibition was inactive: 12.1%. For `Cc1cc(=O)[nH]c(N[N+](=O)[O-])n1`, the inhibition was inactive: 1.5%. In the case of `O=C(OC1CN2CCC1CC2)C12CC3CC(CC(C3)C1)C2` (configuration not stated), the inhibition was inactive: 8.17%. With `Cc1c2c(nc3ccccc13)SC(C(Cl)Cl)C2` (configuration not stated) the inhibition was inactive: 22%. For `COc1ccc(N/C(=N/P(=O)(N2CCOCC2)N2CCOCC2)N2CCOCC2)cc1`, the inhibition was inactive: 2.64%. In the case of `Cc1ccc2nc3c(c(C)c2c1)CC(C(Cl)Cl)S3` (configuration not stated), the inhibition was inactive: 27.3%. In the case of `Cc1ccc(OP(=O)(Nc2ccc([N+](=O)[O-])cn2)Oc2ccc(C)cc2)cc1`, the inhibition was inactive: 16.9%. With `COc1cc(C(=O)NCC2(N3CCOCC3)CCCCC2)ccc1OCC(C)C` the inhibition was inactive: 4.22%. In the case of `C[As](=O)(O)c1cccc(C(=O)O)c1`, the inhibition was inactive: -0.47%. In the case of `O=[As](O)(c1ccc(O)cc1)c1ccccc1O`, the inhibition was inactive: -0.978%. With `O=[N+]([O-])c1cc([N+](=O)[O-])c(-c2ccn[nH]2)s1` the inhibition was inactive: 27.8%. In the case of `CC(C)NC(=O)NP(=O)(Oc1ccccc1)Oc1ccccc1`, the inhibition was inactive: 27.4%. In the case of `O=C(OC1CN2CCC1CC2)c1cccc2[nH]cnc12` (configuration not stated), the inhibition was inactive: 11.3%. In the case of `CCN(CC)C(=S)SC(NC=O)C(Cl)(Cl)Cl` (configuration not stated), the inhibition was inactive: -5.04%. For `CC(C)c1ccc(OP(=O)(Nc2ccccn2)Oc2ccccc2F)cc1` (configuration not stated), the inhibition was inactive: 25.3%. For `ClCCSc1nnc(-c2cccnc2)o1`, the inhibition was inactive: -2.57%. In the case of `Cc1cc(SC(NC(=O)c2ccccc2)C(Cl)(Cl)Cl)nc(C(C)C)n1` (configuration not stated), the inhibition was inactive: -3.49%. With `CCCCOc1ccc(C(=O)NCC2(N3CCCCC3)CCCCC2)cc1OC` the inhibition was inactive: 13.8%. For `CCOC(=O)Nc1ccc([As](=O)(O)O)c(O)c1`, the inhibition was inactive: 9.41%. With `O=P(Nc1ccccn1)(c1cccc2ccccc12)c1cccc2ccccc12` the inhibition was inactive: -1.16%. For `Cc1cc(SC(NC=O)C(Cl)(Cl)Cl)ncn1` (configuration not stated), the inhibition was inactive: 10.8%. With `CCOC(=O)Nc1cccc([As](=O)(O)O)c1` the inhibition was inactive: 7.05%. For `O=C(Nc1ccncc1[N+](=O)[O-])c1ccc([N+](=O)[O-])cc1[N+](=O)[O-]`, the inhibition was inactive: 16.5%. In the case of `O=C(COc1ccccc1)OC1CN2CCC1CC2` (configuration not stated), the inhibition was inactive: 3.43%. In the case of `COP1(=S)c2c(C)nn(CCC#N)c2N=C(c2ccc(F)cc2)N1C` (configuration not stated), the inhibition was inactive: 8.77%. With `CCC(C)N(CC(C)C)C(=S)SC(NC(C)=O)C(Cl)(Cl)Cl` (configuration not stated) the inhibition was inactive: 19.8%. With `CCOC(=O)c1ccc(NC(=O)C(C)(CCl)SC)cc1` (configuration not stated) the inhibition was inactive: 21.6%. For `O=C(OC1CN2CCC1CC2)c1cccc([N+](=O)[O-])c1` (configuration not stated), the inhibition was inactive: -19.1%.
